We go through one substance from US8613905B2, “Diagnostic agent” (United Arab Emirates University, priority 2007, dated 2013).

The nature of the data set: Microscopic investigation of BBB permeability and pharmacokinetics in normal mice. Type of data set: in vivo. The conditions noted are these: iv. As for the experimental part:
Normal mice were injected intravenously with 100 μg/100 μl of peptide OR6 and 50 μg/200 μl of peptide 5 or PBS solution (n=2 for each group). Animals injected with OR6 were sacrificed after 5, 15, 30 and 60 min, whilst mice injected with OR5 were sacrificed after 5, 10, 15, 20 and 30 min. The whole brains, kidney and liver were removed. The tissues were fixed in 10% formaldehyde in phosphate buffer (PB) for over night at room temperature (RT) and next day were then transferred to 30% sucrose in PB and incubated for another over night at 4° C. The brains were then cut into 70-mm frozen sections using a cryostat. Brain slices were washed with PBS before incubated with 3% hydrogen peroxide (in 50% ethanol) for 30 min at RT. After washing with PBS, the sections were incubated with Extravidin peroxidase (1:500 in PBS containing 0.3% triton) and incubated for 1 hr at RT, prior to washing with PBS (2 changes over 5 min) and the last wash in PB. DAB (3,3′ diaminobenzidine tetrahydrochloride) is applied for 15 min, before washing 3× in PB for 5 min. The sections were placed on gelatin coated slides and left to dry overnight. Next day the slides were hydrated in water for 3 min and then dehydrated for 5 min in each of: 50% ethanol, 70% ethanol, 95% ethanol, 100% ethanol (2×) and xylene (2×). Slides were then mounted in DPX-xylene for viewing under the microscope.

“Also recorded” adds a separate entry of the source.

As for “Gd-DOTA-r-Sar-vva-Sar-K(biotin)-butadiamine [OR6]”, the “staining / clearance in the cerebellum at 1 hr post-injection” value is reported as “started to be fainter; also recorded: might be getting cleared from the cerebellum”.
